Values of other authors in patent US20240189293A1, “Compositions And Methods For Treating Gulf War Illness” (published 2024).

Conditions: oral

Question: Which bioavailability does the source give for `CN(C)C(=O)Oc1ccc[n+](C)c1` here?
Answer: Its bioavailability is “poor bioavailability”.
